# A549 viability: counter-screen for Nrf2 inhibitors: cytotoxicity in A549 cells. A549 ARE-Fluc cells, CellTiter-Fluor viability, 18-24 h. Potency, µM (top dose mostly 46 µM), actives largely listed as inhibitors. 390,000 tested, 0.16% active. AID 504648
#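 Cytotoxicity counterscreen: CellTiter-Fluor fluorescence was measured in A549 ARE_Fluc cells after 18-24 h of compound exposure in a concentration series. The subsequent BugLite luminescent read reports ARE-luciferase activity.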
# Nrf2 inh: blocks Nrf2 signaling | A549 ARE-Fluc reporter, luciferase luminescence, 18-24 h | Potency, µM (titrated, usually from 46 µM), actives largely listed as inhibitors | 360,000 tested, 2.1% active | AID 504444; note: nearly all actives have a fitted effect of over 60% in size
#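 A549 ARE_Fluc cells, 5000/well, 5% FBS OPTI-MEM; compounds in dose-response, 18-24 h at 37 °C/5% CO2; CellTiter-Fluor viability read (Ex 405/Em 525), then BugLite luciferase luminescence = Nrf2 activity.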
# B2AR arrestin: agonists driving beta-arrestin recruitment to human beta2-adrenergic receptor; Potency, µM (top dose mostly 46.1 µM), hits mostly activators; 330,000 tested, 0.02% active; beta-arrestin recruitment to beta2AR, cell-based reporter; P07550; note: nearly all actives have a fitted effect of over 65% in size
# miR-21 reporter: raises the signal of a miR-21 reporter | HeLa miR-21 FLuc reporter, luciferase, 48 h | 340,000 tested, under 10 active | Potency, µM (titrated, usually from 38.3 µM); active = well fitted rising curve with a large enough effect; inconclusive = small, poorly fitted or top-dose-only effect; inactive = no such curve, though single readings can be large or run the other way;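 further: miR-21 action dims this reporter so a rising signal means less miR-21 action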
#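 HeLa miR-21-FLuc reporter line, endogenous miR-21; 2000 cells/well in DMEM/10% FBS; compound titration up to ~40uM final, 48 h, 37 degree Celsius; luciferase detection reagent, 15 min lysis, CCD luminescence.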
# Nrf2 ARE act: Nrf2 pathway activation | AREc32 ARE-luciferase reporter (MCF7-derived line), luminescence, 24 h | Potency, µM (highest dose often 46.1 µM), most hits filed as activators | 410,000 tested, 0.31% active | AID 624171; note: nearly all actives have a fitted effect of over 65% in size
#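 Steps: seed AREc32_Fluc cells (1000/well, 5% FBS OPTI-MEM); incubate overnight at 37 deg C; add 23 nL compound; incubate 24 hr; add Steady-Glo; hold 30 min RT; read luminescence.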
# Hits are given with their value; – = inactive; ? = inconclusive; · = no result; ! = not confirmed by another sample. This is a sample that favours compounds with a hit; in the whole collection about 2.2% have one here. Unless noted, calls come from the whole dose curve; as a rule, active = well fitted curve in the direction sought with a large enough effect; inconclusive = small, poorly fitted or top-dose-only effect, or another doubt; inactive = no such curve, though single readings can be large; an effect the other way counts as inactive or inconclusive.
SMILES,A549 viability,Nrf2 inh,B2AR arrestin,miR-21 reporter,Nrf2 ARE act
Cc1cc(C(=O)COC(=O)c2cccc(O)c2)c(C)n1C1CC1,–,13µM,–,·,–
CCOc1ccccc1CNC(=O)c1ccc(Cn2c(SCc3ccccc3)nc3cccnc32)cc1,–,21µM,·,–,–
COc1ccc(CNC(=O)c2ccc(NC(=O)N3CCSc4ncccc43)cc2)c(OC)c1,–,?,·,–,–
O=C(NCCc1ccccc1)c1ccc(CSc2nc3cccnc3n2Cc2ccccc2)cc1,–,?,·,–,–
CCOc1ccccc1CNC(=O)c1ccc(NC(=O)N2CCSc3ncccc32)cc1,–,18µM,·,–,–
CN(Cc1ccccc1)C(=O)c1ccc(CSc2nc3cccnc3n2Cc2ccccc2)cc1,?,21µM,·,?,–
O=C(NCc1cccs1)c1ccc(CSc2nc3cccnc3n2Cc2ccc(F)cc2)cc1,–,18µM,·,–,–
CCc1ccc2oc(-c3ccc(C)c(NC(=O)c4ccc(C#N)cc4F)c3)nc2c1,–,?,·,–,–
CC1CC=CC2C1C(=O)N(Cc1ccccc1)C2c1ccc(C(F)(F)F)cc1 (centres undefined),–,–,·,·,·
Cc1ccc(C)c(S(=O)(=O)N2CCCC2CNC(=O)c2ccc([N+](=O)[O-])cc2)c1 (centres undefined),–,18µM,–,·,–
CC(C)(C)c1ccc(C(=O)NCC2CCCN2S(=O)(=O)c2ccccc2)cc1 (centres undefined),–,21µM,–,·,–
Cc1ccc(S(=O)(=O)N2CCCC2CNC(=O)C(=O)Nc2ccc(F)cc2)cc1 (centres undefined),–,13µM,–,·,–
Cc1ccc(C)c(S(=O)(=O)N2CCCC2CNC(=O)C(=O)NC2CC2)c1 (centres undefined),–,–,–,·,–
Cc1ccc(C(=O)NCC2CCCN2S(=O)(=O)c2ccc(C)cc2)cc1 (centres undefined),–,–,–,·,–
CCc1ccc(-n2nc3cc(C)c(NC(=O)c4cc(Cl)ccc4OC)cc3n2)cc1,–,–,·,–,–
CCOc1c2ccc(C(=O)NCc3cc(C(F)(F)F)cc(C(F)(F)F)c3)cc2nn1CCOC,–,?,–,–,–
CCCCn1nc2cc(C(=O)NCc3cc(C(F)(F)F)cc(C(F)(F)F)c3)ccc2c1OCC,–,18µM,–,–,–
CCn1c(=O)cc(SCC(=O)Nc2ccc(C)c(F)c2)c2ccccc21,–,23µM,·,–,–
CC1CCc2cc(F)cc3c(O)c(C(=O)NCC4CCCO4)c(=O)n1c23 (centres undefined),–,16µM,–,–,–
CCCn1c(=O)c(C(=O)NCC2CCCO2)c(O)c2ccccc21 (centres undefined),–,–,–,–,–
O=C1c2ccccc2NC(c2cc(Br)c3c(c2)OCO3)N1Cc1ccco1 (centres undefined),–,–,·,·,·
Cc1cc2c(s1)c1cnn(Cc3cccc(Br)c3)c(=O)c1n2C,–,?,·,·,·
S=C(NCC1CCCO1)NC1CCCCC1 (centres undefined),–,–,–,–,–
CCCC(NC(=S)NCC1CCCO1)C12CC3CC(CC(C3)C1)C2 (centres undefined),–,15µM,–,–,–
COC(=O)c1cccc(NC(=O)NC(=O)c2ccc(Cl)cc2)c1,–,10µM,–,–,–
SMILES,A549 viability,Nrf2 inh,B2AR arrestin,miR-21 reporter,Nrf2 ARE act
COC(=O)c1cccc(NC(=O)Nc2ccc(Cl)cc2)c1,–,–,–,–,–
O=S(=O)(Nc1cccc2cccnc12)c1ccccc1,–,?,–,?,?
Cc1ccc(S(=O)(=O)Nc2cccc3cccnc23)c([N+](=O)[O-])c1,?,10µM,–,?,–
Cc1cc(C)c(NS(=O)(=O)c2cccc3cccnc23)c(C)c1,–,–,–,–,–
O=S(=O)(Nc1cccc2cccnc12)c1ccc(S(=O)(=O)N2CCCC2)cc1,–,5.2µM,–,–,?
COc1ccc(-n2nc3c(N4CCCC(C(=O)NCc5ccccc5C)C4)nnc(C)c3c2C)cc1 (centres undefined),18µM,21µM,–,–,–
CCOc1ccccc1CNC(=O)C1CCCN(c2nnc(C)c3c(C)n(-c4ccccc4)nc23)C1 (centres undefined),?,23µM!,–,–,–
Cc1ccc(F)cc1NC(=O)COC(=O)c1ccc(S(C)(=O)=O)c([N+](=O)[O-])c1,–,–,·,·,·
CCOc1ccccc1C(=O)Nc1cccc2ccc(C)nc12,–,?,·,–,–
Cc1ccc2c(C(=O)N3CCN(c4ccccc4)CC3)cc(-c3cccnc3)nc2c1C,?,21µM,–,–,–
Cc1ccc(NS(=O)(=O)c2cc3c(cc2-c2ccco2)NC(=O)CO3)cc1C,–,–,·,·,·
CCCCOc1ccc(C(=O)NNC(=O)c2cnccn2)cc1OC,–,10µM,–,·,–
COc1cc(C(=O)NC(=S)NNC(=O)c2cnccn2)cc(OC)c1OC,–,4.6µM,–,–,–
COC(=O)c1ccccc1NC(=O)C1=CC(c2cccs2)=NS(=O)(=O)N1C,–,?,–,–,–
COC(=O)c1ccccc1NC(=O)C1=CC(c2ccc(C)cc2)=NS(=O)(=O)N1C,–,18µM,·,–,–
Cc1ccc(N2CCN(C(=O)Nc3cn(CC(C)C)c(=O)c4ccccc34)CC2)c(C)c1,–,?,·,?,–
Cc1c(Cl)cccc1NC(=O)CN1C(=O)c2ccccc2Sc2ncccc21,–,–,·,–,–
NS(=O)(=O)c1ccc(CCNC(=O)CN2CCC(Cc3ccccc3)CC2)cc1,–,21µM,–,–,–
Oc1ccc(Br)cc1-c1cc(-c2ccco2)[nH]n1,–,·,–,–,3.5µM
CCOC(=O)c1ccc(Nc2ncnc3c2cnn3C)cc1,–,–,–,–,–
Cn1ncc2c(O/N=C(\N)c3ccc(C(C)(C)C)cc3)ncnc21,16µM,18µM,–,?,–
COc1ccc(C(=O)N(Cc2ccccc2)Cc2ccccc2)cc1COc1ccc(NC(C)=O)cc1,–,?,·,·,·
Cc1ccc(N=Cc2c(C)[nH]n(-c3nc4ccccc4[nH]3)c2=O)cc1,–,21µM,–,–,–
Cc1ccc(-n2[nH]c(C)c(C=Nc3ccc4[nH]c(=O)[nH]c4c3)c2=O)cc1,–,–,–,–,–
Cc1ccccc1Nc1nc(N)c(C(=O)c2ccccc2Cl)s1,–,?,·,–,–
Cc1ccc(C)c(N2CCN(CCCNC(=O)c3cnn(-c4ccccc4)c3C3CCN(C(=O)OC(C)(C)C)CC3)CC2)c1,?,18µM,·,–,–
Cc1cccc(-n2ncc(C(=O)NCc3ccc4c(c3)OCO4)c2C2CCN(C(=O)OC(C)(C)C)CC2)c1,–,16µM,·,–,–
Cc1ccc(-n2ncc(C(=O)NCc3cccs3)c2C2CCN(C(=O)OC(C)(C)C)CC2)cc1C,–,21µM,·,?,–
Cc1c(Cl)cccc1NS(=O)(=O)c1cc2c(cc1Cl)CCC(=O)N2,–,?,·,·,·
CCCN1CNc2c(c(=O)[nH]c(=S)n2CCc2cc(C)ccc2C)C1,–,–,·,·,·
